## AlphaSeq binding of Ab-14 light chain variants to a spike HR2 peptide

The measurements come from Li et al. 2023 (doi:10.1038/s41467-023-39022-2) through the FLAb antibody collection.

Binding partner: SARS-CoV-2 spike HR2 peptide, sequence PDVDLGDISGINAS.

Ab-14 is the parent antibody, in scFv form: VH, then a 15-residue (Gly4Ser)3 linker, then VL. The heavy chain is unchanged in all variants.
VH: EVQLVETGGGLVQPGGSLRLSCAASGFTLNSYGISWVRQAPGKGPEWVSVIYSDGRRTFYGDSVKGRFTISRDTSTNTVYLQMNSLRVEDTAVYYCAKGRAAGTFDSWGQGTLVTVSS
VL: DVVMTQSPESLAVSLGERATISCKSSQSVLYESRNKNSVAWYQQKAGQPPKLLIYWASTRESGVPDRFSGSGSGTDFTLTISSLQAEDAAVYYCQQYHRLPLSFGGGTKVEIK

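The variants were designed computationally from a first round of random CDR variants and then made and measured. Several design methods are mixed in this list. The assay is AlphaSeq: two haploid yeast populations carry antibody and antigen on their surface. Binding brings cells together so that they mate, and sequencing counts the barcode pairs among the diploids. The ratio of observed to expected reads was calibrated, replicate by replicate, on BCL2-family standards whose Kd was known from biolayer interferometry. Each pool was mated in six replicate cultures.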

The parent's light chain CDRs are KSSQSVLYESRNKNSVA, WASTRES, QQYHRLPLS; each variant's own CDRs replace them letter for letter. Variants here have more than six changes. Each Kd is an estimate from the mating assay, the geometric mean of the replicates in which the pair was seen; lower is stronger. Where no diploid with the target was found in any replicate, the entry reads "nd": below detection, most likely a poor binder, though not proof of it.

For KINERMRMGENQQHSIA, NAAEIVK, QQYHNLPLG, the assay gave 7.7 nM (6 of 6 replicates).
For KIGMTLNMMSHKKNNVA, DLVTREN, QQYHRLPLS, the assay gave 2.8 nM (6 of 6 replicates).
For KVSQSHLYESRNWNAVA, EASQRPS, QQYHRLPLS, the assay gave 820 pM (6 of 6 replicates).
For KIDISELGESRNKNSVA, NASTRME, QQYHRLPLS, the assay gave 1.3 nM (6 of 6 replicates).
For KFMYSLEYQMHEQNNIA, HGEISTV, QQYSRLPIY, the assay gave 16 nM (1 of 6 replicates).
For KVSWEDLLQSRNWNQVA, EASTRES, QQYHRLPLS, the assay gave 2.6 nM (6 of 6 replicates).
For KCDQWVDYGDRNKNSVA, DASTRES, QQYHRLPLS, the assay gave 600 pM (6 of 6 replicates).
For KLYSVTSTEKVNGNNVA, EMETRER, QQYNRLPLS, the assay gave 590 nM (2 of 6 replicates).
For KLSPNVCYYSRDKNPVA, WASTRES, QQYHRLPLF, the assay gave nd (0 of 6 replicates).
For QFDTNLHYMGANKNSVA, EMTEVTI, QQYHRLPIE, the assay gave nd (0 of 6 replicates).
For NLQYLEENSLIGASAIA, DVSIAVM, QQYHRLPLA, the assay gave nd (0 of 6 replicates).
For KVSQSQLYEWRNMNSVA, NASTREM, QQYHRLPLI, the assay gave 1.8 nM (6 of 6 replicates).
For QLSMWEQSGTRGYSSVA, DTDVRMA, QQYHRLPLS, the assay gave 2.2 nM (6 of 6 replicates).
For MISDLTMYGSRNKHSVA, DLSTRGS, QQYHRLPLS, the assay gave 1.2 nM (6 of 6 replicates).
For MISQVMNTLTRHGNNVA, DLQEREE, QQYFRLPLS, the assay gave 19 nM (6 of 6 replicates).
For TFDQMGKQYGMNTNSVA, AGNIVRI, QQYSRLPFS, the assay gave 7.0 nM (6 of 6 replicates).
For RFDQTEQEGIQDYNSVA, NGSQSGT, QHYSRLPIS, the assay gave 71 nM (6 of 6 replicates).
For QLDQAYRVGDLWTQSIA, HGSMRVQ, QCYNRLPLS, the assay gave 79 nM (1 of 6 replicates).
For QIYQAMHTLSQMKNNVA, DVNERGQ, QQYYRLPLS, the assay gave 1.1 nM (6 of 6 replicates).
For TLYGLSVSMSKNKNSVA, EMTTREA, QQYDRLPLI, the assay gave 64 nM (5 of 6 replicates).
For QIYQAMHTLSQMKDNVA, DVNERGD, QQYFRLPLS, the assay gave 2.2 nM (6 of 6 replicates).
For ILSQMLLTAGNKHNSVA, QANYRED, QQYHRLPLS, the assay gave 9.8 nM (6 of 6 replicates).
For HISQSAGVTSRNKNSVA, ENSTRED, QQYDRLPLS, the assay gave 1.3 µM (2 of 6 replicates).
For KLYQSVGTMSHNKDSIA, DMERRED, QQYHRLPLS, the assay gave 6.2 nM (6 of 6 replicates).
For MLLQATMYGERNRNSVA, HAMTRED, QQYHRLPLI, the assay gave 57 nM (3 of 6 replicates).
For TISQMTSLFSQSINNVA, EVSMREP, QQYDRLPLT, the assay gave 210 nM (5 of 6 replicates).
For IISQMMLIESATHNSIA, QTETREE, QQYHHLPLI, the assay gave nd (0 of 6 replicates).
For KVSEFMRGLMQRQDSIA, DNVTRNN, QQYDRLPLS, the assay gave 15 nM (6 of 6 replicates).
For FLHGNIEYGNGNWSAIA, ENTERVD, QYYQHLPLA, the assay gave nd (0 of 6 replicates).
For KLQQSDQYESRVKNAVA, QASVRES, QQYHRLPLS, the assay gave 3.3 nM (6 of 6 replicates).
For SVQYQLVNGRDIKNPVA, EASHHAA, QQYDRLPLG, the assay gave 240 nM (6 of 6 replicates).

Excerpt, the first 2 entries:

KINERMRMGENQQHSIA, NAAEIVK, QQYHNLPLG: 7.7 nM (6 of 6 replicates).
KIGMTLNMMSHKKNNVA, DLVTREN, QQYHRLPLS: 2.8 nM (6 of 6 replicates).

The authors averaged sequences with at least three values out of six and counted those with two or fewer as poor binders. Of ten entries with the parent sequence, four were seen in most replicates (averages 2.2 nM to 240 nM), three in one and three in none, so single entries are noisy. As a blank, each scFv also met three strains without target: over all light chain designs, 4% of these pairings were detected, typically at 430 nM and seldom below 38 nM. The range of this assay differs from that of the first round, and the authors advise against merging the two.